# Experimental data reported in ChEMBL document CHEMBL4325822, “Discovery of a tetrazolyl β-carboline with in vitro and in vivo osteoprotective activity under estrogen-deficient conditions” (Medchemcomm, 2018).
# Sequences of proteins named here, by UniProt entry; tags and fusion partners are left off. A change or cut given only in a name is not applied to a line headed by its entry.
# UniProt Q9QY78: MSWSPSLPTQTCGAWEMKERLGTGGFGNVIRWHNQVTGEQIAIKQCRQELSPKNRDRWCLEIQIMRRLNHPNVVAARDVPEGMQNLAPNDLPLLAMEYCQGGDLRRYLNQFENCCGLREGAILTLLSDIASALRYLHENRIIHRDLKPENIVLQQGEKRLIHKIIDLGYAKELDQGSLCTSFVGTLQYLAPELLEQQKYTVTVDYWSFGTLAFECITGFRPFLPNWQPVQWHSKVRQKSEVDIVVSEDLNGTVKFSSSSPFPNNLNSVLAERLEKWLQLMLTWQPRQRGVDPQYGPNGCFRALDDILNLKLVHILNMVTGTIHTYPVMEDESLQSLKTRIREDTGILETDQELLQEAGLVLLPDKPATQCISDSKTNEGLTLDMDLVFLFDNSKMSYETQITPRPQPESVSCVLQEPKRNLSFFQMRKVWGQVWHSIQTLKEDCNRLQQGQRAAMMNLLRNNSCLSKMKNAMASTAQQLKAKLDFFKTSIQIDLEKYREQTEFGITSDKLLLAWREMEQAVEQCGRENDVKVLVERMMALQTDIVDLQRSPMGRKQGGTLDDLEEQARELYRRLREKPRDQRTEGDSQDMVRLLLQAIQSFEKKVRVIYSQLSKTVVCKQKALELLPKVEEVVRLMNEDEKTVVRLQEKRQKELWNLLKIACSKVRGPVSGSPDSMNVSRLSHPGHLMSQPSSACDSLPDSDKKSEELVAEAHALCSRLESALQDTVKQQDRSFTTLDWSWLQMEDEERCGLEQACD
# UniProt Q6TMG5: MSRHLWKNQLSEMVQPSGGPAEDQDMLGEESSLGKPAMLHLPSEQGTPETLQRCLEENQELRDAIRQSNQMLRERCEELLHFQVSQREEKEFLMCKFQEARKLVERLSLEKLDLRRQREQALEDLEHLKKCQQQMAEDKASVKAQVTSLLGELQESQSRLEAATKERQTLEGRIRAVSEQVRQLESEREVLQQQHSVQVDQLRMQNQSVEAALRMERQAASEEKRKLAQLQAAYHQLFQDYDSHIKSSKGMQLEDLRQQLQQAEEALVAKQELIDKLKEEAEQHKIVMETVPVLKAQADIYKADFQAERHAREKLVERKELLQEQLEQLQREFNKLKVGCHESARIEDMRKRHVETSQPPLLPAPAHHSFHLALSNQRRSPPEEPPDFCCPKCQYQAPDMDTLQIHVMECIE
# Columns and labels:
# Assay type in all cases: cell-based
# Settings in all cases: Calvarial osteoblast
# [1] = target: T1, I-kappa-B kinase (Rattus norvegicus) (UniProt Q9QY78+G3V926+Q6TMG5); experiment: Inhibition of IKK in Sprague-Dawley rat calvarial osteoblasts assessed as reduction in TNFalpha-induced NFkB signaling by measuring ratio of cytosolic p65 level to beta-actin level at 100 pM after 24 hrs by Western blot analysis
# [2] = target: T1, I-kappa-B kinase (Rattus norvegicus); experiment: Inhibition of IKK in Sprague-Dawley rat calvarial osteoblasts assessed as reduction in TNFalpha-induced beta-catenin degradation by measuring ratio of beta-catenin level to beta-actin level at 100 pM after 24 hrs by Western blot analysis
# [3] = target: T1, I-kappa-B kinase (Rattus norvegicus); experiment: Inhibition of IKK in Sprague-Dawley rat calvarial osteoblasts assessed as reduction in TNFalpha-induced NFkB signaling by measuring ratio of nuclear p65 level to beta-actin level at 100 pM after 24 hrs by Western blot analysis
# [4] = target: T1, I-kappa-B kinase (Rattus norvegicus); experiment: Inhibition of IKK in Sprague-Dawley rat calvarial osteoblasts assessed as reduction in TNFalpha-induced IkBalpha phosphorylation by measuring ratio of phosphorylated IkBalpha level to beta-actin level at 100 pM after 24 hrs by Western blot analysis
# [5] = target: T1, I-kappa-B kinase (Rattus norvegicus); experiment: Inhibition of IKK in TNFalpha-simulated Sprague-Dawley rat calvarial osteoblasts assessed as ratio of IkBalpha level to beta-actin level at 100 pM after 24 hrs by Western blot analysis
# [6] = target: T1, I-kappa-B kinase (Rattus norvegicus); experiment: Inhibition of IKK in TNFalpha-simulated Sprague-Dawley rat calvarial osteoblasts assessed as ratio of Bcl2 level to beta-actin level at 100 pM after 24 hrs by Western blot analysis
# [7] = target: T1, I-kappa-B kinase (Rattus norvegicus); experiment: Inhibition of IKK in TNFalpha-simulated Sprague-Dawley rat calvarial osteoblasts assessed as ratio of Bcl-xL level to beta-actin level at 100 pM after 24 hrs by Western blot analysis
# [8] = target: T1, I-kappa-B kinase (Rattus norvegicus); experiment: Inhibition of IKK in TNFalpha-simulated Sprague-Dawley rat calvarial osteoblasts assessed as ratio of Bax level to beta-actin level at 100 pM after 24 hrs by Western blot analysis
structure (smiles),measurement,setting,value
CCOC(=O)c1cc2c([nH]c3ccccc32)c(C(c2nnnn2C(C)(C)C)N2CCN(C)CC2)n1 (stereo not drawn),Ratio,[1],1.2
same,Ratio,[2],0.77
same,Ratio,[3],1.08
same,Ratio,[4],1.21
same,Ratio,[5],1.23
same,Ratio,[6],1.59
same,Ratio,[7],1.52
same,Ratio,[8],0.83
